# Test results taken from PubChem BioAssay AID1508642 (National Center for Advancing Translational Sciences (NCATS), 2021).
# Only a part is listed here, and it is no random draw. Some of these compounds have results that are not shown, active ones among them. Inconclusive results are not listed. Calls of active or inactive are those of the source. Calls follow the shape of the dose curve; as a rule, active = well fitted cell-killing curve with a large enough effect; inconclusive = small, poorly fitted or top-dose-only effect, or effect the other way; inactive = flat fitted curve, though single readings scatter.
# Assay: Cell viability qHTS assay in S16 Pmp22-F2sN cells; also: nearly all actives have a fitted effect of over 65% in size
# Details: S16 Pmp22-F2sN Schwann cells (luciferase reporters placed in the Pmp22 gene) viability, CellTiter-Glo, 24 h; at 57.5 µM (top of the series)
# Source text: Assay Provider: Jim Inglese Ph.D. National Center for Advancing Translational Science, National Institutes of Health, Rockville, MD CMT is a heterogeneous group of neurological disorders that affect approximately 1 in 2,500 people. In particular, the most common form of CMT, CMT1A is genetically linked to the duplication of the PMP22 gene which leads to Schwann cell overexpression, thus manifesting itself as a typical case of dose-sensitive diseases. To identify small molecule compounds that can mediate the expression of PMP22 we developed a phenotypic assay screening strategy by utilizing genome editing techniques to construct Schwann cell lines containing novel reporter technology to monitor the transcriptional or translational regulation of PMP22. For high sensitivity we use a bioluminescent reporter system embedded in the 3' UTR of the PMP22 gene (S16(c9) Pmp22-F2sN) to identify compounds that inhibit gene expression. […] We can further discriminate the effect of all transcriptionally active molecules on PMP22 translation or stability with an assay that incorporates a short NLuc peptide (HiBiT) at the C-terminus of expressed PMP22 (S16(f8) PMP22-HiBiT) allowing alpha complementation and luminescence detection of membrane-associated PMP22 protein. These assays were screened against the NCATS Sytravon Library Collection. Miniaturization of these assays to 1536-well plate format for quantitative high throughput screening (qHTS) yielded rich data sets immediately from the qHTS assay (S16(c9) Pmp22-F2sN), when compared with data from a cell viability assay (Cell TiterGlo) to identify compounds that decreased the output signals through cellular toxicity to streamline the selection process of actives for subsequent characterization using the HiBiT assay (S16(f8) PMP22-HiBiT).
# Cell viability assay in S16 Pmp22-F2sN cells PROTOCOL TABLE (format as described by Inglese J, Shamu CE and Guy RK. 2007) SEQUENCE No. (e.g., 1, 2, 3, etc.); […] (e.g., Cells, Incubation, Reagent, etc.); VALUE and DESCRIPTION. 1. Cells. Add 500-1,000 cells in 4 uL in growth media (DMEM High Glucose, No Phenol Red media + 10% heat-inactivated FBS + 1% Pen/Strep supplemented media) per well into Greiner 1536-well white/solid bottom high base, TC-treated plates. 2. Compounds. Library compounds and controls added at 23nL per well, transferred by Pin Tool. 3. Incubation. Incubate plates at 37C, 5% CO2, 95% RH for 24 h. 4. Reagent. Add 3uL CellTiter-Glo per well of Greiner 1536-well plates. 5. Incubation. Incubate plates at room temperature for 15 min., protect from light. 6. Detector. FLuc luminescence measured using CCD-based camera (Viewlux). NOTES (numbers refer to Sequence numbers above; values are from representative experiments) 6. Luminescence Read: Clear filter; Exposure = 1 sec, Gain = High, Speed = Slow, Binning = 2X REFERENCES: 1. Inglese J, Shamu CE and Guy RK, Reporting data from high throughput screening of small molecule libraries, Nature Chemical Biology, 2007, 3(8): 438-441. doi.org/10.1038/nchembio0807-438 2. Yasgar A, Shinn P, Jadhav A, Auld DS, Michael S, Zheng W, Austin CP, Inglese J and Simeonov A, Compound Management for Quantitative High-Throughput Screening. J. Assoc. Lab. Auto., 2008, 13: 79-89. doi: 10.1016/j.jala.2007.12.004
# % is scaled to controls: 0 for no effect and ±100 for the full control effect.
row,SMILES,"activity change, negative = cytotoxicity"
1,COc1ccc(C(=O)NCC2(N(C)C)CCCCC2)cc1Cl,inactive: -4.76%
2,COc1cccc(C(=O)NCC2(N3CCOCC3)CCCCC2)c1,inactive: 9.46%
3,CC(C)Oc1ccc(C(=O)NCC2(N(C)C)CCCCC2)cc1,inactive: 4%
4,COc1cc(C(=O)NCC2(N(C)C)CCCCC2)cc(OC)c1OC,inactive: 0.53%
5,Cc1cccc(C(=O)NCC2(N(C)C)CCCCC2)c1,inactive: 9.98%
6,CN(C)C1(CNC(=O)c2ccccc2F)CCCCC1,inactive: 15.9%
7,CN(C)C1(CNC(=O)c2cccc(Cl)c2)CCCCC1,inactive: -2.35%
8,CCCCOc1ccccc1C(=O)NCC1(N(C)C)CCCCC1,inactive: 11.1%
9,CN(C)C1(CNC(=O)c2ccccc2[N+](=O)[O-])CCCCC1,inactive: 13%
10,CCOc1cccc(C(=O)NCC2(N(C)C)CCCCC2)c1,inactive: 11.6%
